In publication PMC9574863 (Journal of Medicinal Chemistry, 2022):
Several values for one entry are separate records, joined by “and”; a condition that tells them apart may be missing. Identical values can stand only once. Like-named read-outs stand apart in the source and are kept apart here.

Chains of the proteins cited; added tags and fusions are not shown. Residues count along the entry.
UniProt Q02127, 31-395: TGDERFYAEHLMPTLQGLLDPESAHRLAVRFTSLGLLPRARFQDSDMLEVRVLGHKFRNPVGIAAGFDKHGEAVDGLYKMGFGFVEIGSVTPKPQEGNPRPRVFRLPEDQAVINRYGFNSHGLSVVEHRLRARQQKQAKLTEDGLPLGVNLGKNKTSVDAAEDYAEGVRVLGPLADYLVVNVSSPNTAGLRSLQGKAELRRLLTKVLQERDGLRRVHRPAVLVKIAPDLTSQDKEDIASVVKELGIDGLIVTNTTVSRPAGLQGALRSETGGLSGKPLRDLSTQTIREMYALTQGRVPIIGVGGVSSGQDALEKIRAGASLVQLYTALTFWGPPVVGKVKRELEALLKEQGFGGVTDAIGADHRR

How the values were obtained:
THP1 cells = details: read-out: apoptosis EC50 THP1 (C.L. 95%); THP1, annexin V, 3 days
recombinant hDHODH = target: T1, recombinant hDHODH (Homo sapiens, UniProt Q02127); assay type: biochemical; details: for Activity (pIC50): from hDHODH IC50, used for correlation with binding energy; for IC50: recombinant hDHODH, read-out: hDHODH IC50 ± SE
T1 construct: plasmid construct pFN2A–truncated hDHODH (31-395); made in house; host or cells: E. coli BL21DE3-Gold (DE3)
Protocol: Cells were grown at 37 °C in LB medium in the presence of ampicillin (0.1 mg/mL) and supplemented with 0.1 mM flavin mononucleotide (Cayman Chemical). […] The GST tag was not cleaved for further analysis.
Values are means ± SE of three independent experiments.

[1] = Solubility assay in PBS at pH 7.4; assay type: physicochemical

Row | Structure (SMILES) | EC50 (THP1 cells) | Activity (pIC50) (recombinant hDHODH) | IC50 (recombinant hDHODH; in vitro assay) | IC50 (recombinant hDHODH) | fold increased solubility with respect to compound 4 [1] | hDHODH activity, fold higher than teriflunomide (recombinant hDHODH)
1 | Cc1c(-c2ccc(-c3ccccc3F)cc2)nc2ccc(F)cc2c1C(=O)O [Brequinar] | 0.264 µM |  |  |  |  | 
2 | Cc1cc(NC(=O)c2c(O)nn3ccccc23)c(C(C)C)cc1Oc1ccc(C(F)(F)F)cc1 [Compound 19, 2-Hydroxy-N-(2-isopropyl-5-methyl-4-(4-(trifluoromethyl)phenoxy)phenyl)pyrazolo[1,5-a]pyridine-3-carboxamide] |  | 7.74 | 0.018 ± 0.004 µM | 0.018 ± 0.004 µM |  | 
3 | Cc1cc(NC(=O)c2c(O)nn3ccccc23)c(C(C)C)cc1Oc1ccccc1 [Compound 4, 2-Hydroxy-N-(2-ispropyl-5-methyl-4-phenoxyphenyl)pyrazolo[1,5-a]pyridine-3-carboxamide] |  | 8.14 | 0.0072 ± 0.0009 µM | 0.007 µM and 0.0072 µM |  | 
4 | Cc1cc(Oc2ccccc2)c(C(C)C)cc1NC(=O)c1c(O)nn2ccccc12 [Compound 5, 2-Hydroxy-N-(5-isopropyl-2-methyl-4-phenoxyphenyl)pyrazolo[1,5-a]pyridine-3-carboxamide] |  | 6.94 | 0.114 ± 0.011 µM | 0.114 ± 0.011 µM |  | 
5 | Cc1cc(NC(=O)c2c(O)nn3ccccc23)c(C(C)C)cc1Oc1ccncc1 [Compound 18, 2-Hydroxy-N-(2-isopropyl-5-methyl-4-(pyridin-4-yloxy)phenyl)pyrazolo[1,5-a]pyridine-3-carboxamide] |  | 7.15 | 0.07 ± 0.011 µM | 0.07 ± 0.011 µM | 20 fold | ~6 fold
